Antibody variant affinities, Ab-14 heavy chain, assay 1

Target peptide (SARS-CoV-2 spike, HR2 region): PDVDLGDISGINAS

Each scFv is VH, a 15-residue (Gly4Ser)3 linker, VL, as in the parent Ab-14, and differs from it in the CDRs of the heavy chain only.
VH: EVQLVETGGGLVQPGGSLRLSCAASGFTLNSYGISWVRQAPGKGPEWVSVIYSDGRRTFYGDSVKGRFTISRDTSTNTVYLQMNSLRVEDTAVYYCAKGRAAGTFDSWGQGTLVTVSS
VL: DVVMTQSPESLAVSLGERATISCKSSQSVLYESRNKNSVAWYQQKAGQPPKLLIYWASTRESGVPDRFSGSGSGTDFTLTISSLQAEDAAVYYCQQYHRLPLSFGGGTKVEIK

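The starting antibody came from a phage panning campaign against this peptide. In library AAYL49, one, two or three CDR residues were substituted; doubles and triples were drawn at random. Affinity was read by AlphaSeq, a pooled yeast mating assay with surface-displayed partners. The frequency of each diploid, read from paired DNA barcodes, reflects how well the two displayed proteins bind. The ratio of observed to expected reads was calibrated, replicate by replicate, on BCL2-family standards whose Kd was known from biolayer interferometry. The assay was run in three technical replicates.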

Positions count from residue 1 of the parent VH; F59E puts E in place of F.
Affinities are written as log10 Kd with Kd in nM; a lower number is a better binder.
Replicates are averaged; those with no signal do not enter the mean.
Where no diploid with the target was found in any replicate, the entry reads "not detected": below detection, most likely a poor binder, though not proof of it.

changes,"log10 Kd (nM), mean",seen in
F59E G103L T104A,0.63,3 of 3
T28W L29P G33A,3.22,1 of 3
F27H K65L S107H,3.50,3 of 3
G33P D54E T58D,not detected,0 of 3
T28G V50S,not detected,0 of 3
Y32I G99K T104I,not detected,0 of 3
I34C I51V S63K,not detected,0 of 3
V50Q K65P D106M,not detected,0 of 3
V50T D62S K65H,3.68,2 of 3
S53C G55A D106L,4.51,2 of 3
F27G G55T A101M,not detected,0 of 3
G26E F27E T58P,3.48,1 of 3
G33M V50K F59K,not detected,0 of 3
S35D V50R A102T,not detected,0 of 3
G26K V64K G99F,not detected,0 of 3
T28P S35C S63F,not detected,0 of 3
Y32R G103N S107L,2.90,1 of 3
F27T R56C S107N,2.39,2 of 3
S53N R100C S107L,not detected,0 of 3
T28K F59C,3.31,3 of 3
T58I G61S G103K,3.27,3 of 3
S35I S63R,not detected,0 of 3
N30D R57W T58R,not detected,0 of 3
D54N Y60I K65F,3.59,1 of 3
K65V G99Q A102R,5.06,1 of 3
F59K S63D A102H,4.14,2 of 3

Continued, with the values leading:

"log10 Kd (nM), mean",seen in,changes
not detected,0 of 3,G26I L29R D62C
1.78,3 of 3,G26E T28S G99I
4.24,1 of 3,L29M S31L A101F
not detected,0 of 3,I34G S53Y T104Q
4.56,1 of 3,G26E I34F I51Q
not detected,0 of 3,T28Q V64K D106N
4.58,2 of 3,V50Y S63W V64D
4.92,2 of 3,Y52V V64R F105N
not detected,0 of 3,L29P G55W D106T
4.55,1 of 3,L29P I51F T58Q
3.01,1 of 3,G33P I51L D62K
2.19,2 of 3,S53W G61E D62T
not detected,0 of 3,F27W R57L G99W
not detected,0 of 3,G55D G61F T104N
2.90,1 of 3,G26H N30C
3.98,1 of 3,R57C T104D D106P
5.46,1 of 3,Y32I V50E Y52E
not detected,0 of 3,F27L G55Y G99P
0.27,3 of 3,T28N D106K
2.59,3 of 3,N30T D62G K65A
not detected,0 of 3,G55Q R57F
not detected,0 of 3,L29Q Y52G
4.72,2 of 3,N30R V50R V64M
4.82,2 of 3,T28W K65Q G99E
4.13,3 of 3,G33A T58L T104R
not detected,0 of 3,S53I S63Y G103T
5.65,1 of 3,N30L S35C T104V

Excerpt, the final 9 entries:

changes,"log10 Kd (nM), mean",seen in
T28N D106K,0.27,3 of 3
N30T D62G K65A,2.59,3 of 3
G55Q R57F,not detected,0 of 3
L29Q Y52G,not detected,0 of 3
N30R V50R V64M,4.72,2 of 3
T28W K65Q G99E,4.82,2 of 3
G33A T58L T104R,4.13,3 of 3
S53I S63Y G103T,not detected,0 of 3
N30L S35C T104V,5.65,1 of 3

Three control strains display no target. For library AAYL49, 15% of the pairings with them gave a signal, with a median of 4.06 and one signal in twenty below 2.83, so weak values seen in few replicates may be background.
For reference, the parent read 0.65 as the reference entry and 4.11 (one replicate of three) as a member of this library.

Data: MIT Lincoln Laboratory AlphaSeq set, Engelhart et al. 2022, doi:10.1038/s41597-022-01779-4, as distributed in FLAb.